{"source": "paper PMC2890073", "about": "(Immunogenetics, 2010)", "test_system": "Mamu-B*08301", "type": "binding, Chinese rhesus macaque (Macaca mulatta)", "note": "“Also recorded” adds a separate entry of the source."}
{"sequence": "KSINKVYGR [Peptide 3035.0857]", "values": [{"measurement": "direct binding of radiolabeled ligand to purified Mamu-B*08301", "result": "significant binding; also recorded: did bind"}]}
